Laboratory results from patent publication US9809634B2, “Composition comprising branched multipeptide vaccine and vaccine comprising the same” (INDUSTRY FOUNDATION OF CHONNAM NATIONAL UNIVERSITY, priority 2015, dated 2017).

Tested on: T2 cells
Assay: Binding capacity to T-lymphocyte of branched multi-peptide and stability after binding (T2 cells, Brefeldin A)
Assay type: cell-based, human
Conditions: T2 cells treated with Brefeldin A, measured at 0, 2, 4, 8 and 24 hours; compared to the mixture of single oligopeptides (multipeptide-cocktail); FIG. 4

“branched multi-peptide: branched peptide structure produced from three peptides of BIRC5 96 methionine, CD99 9, and ERBB2 369, using mini-PEG2” was tested, and the “binding capacity to T-lymphocyte over time (stability after binding)” value was “remarkably and stably maintained over time”.
